Assay results from patent US20090163549A1, “Pharmaceutical Composition Comprising an Amide Derivative” (priority 2005, published 2009).

Protein sequences, listed by entry. Tags and fused reporters are not part of them.
UniProt Q8NER1, whole entry: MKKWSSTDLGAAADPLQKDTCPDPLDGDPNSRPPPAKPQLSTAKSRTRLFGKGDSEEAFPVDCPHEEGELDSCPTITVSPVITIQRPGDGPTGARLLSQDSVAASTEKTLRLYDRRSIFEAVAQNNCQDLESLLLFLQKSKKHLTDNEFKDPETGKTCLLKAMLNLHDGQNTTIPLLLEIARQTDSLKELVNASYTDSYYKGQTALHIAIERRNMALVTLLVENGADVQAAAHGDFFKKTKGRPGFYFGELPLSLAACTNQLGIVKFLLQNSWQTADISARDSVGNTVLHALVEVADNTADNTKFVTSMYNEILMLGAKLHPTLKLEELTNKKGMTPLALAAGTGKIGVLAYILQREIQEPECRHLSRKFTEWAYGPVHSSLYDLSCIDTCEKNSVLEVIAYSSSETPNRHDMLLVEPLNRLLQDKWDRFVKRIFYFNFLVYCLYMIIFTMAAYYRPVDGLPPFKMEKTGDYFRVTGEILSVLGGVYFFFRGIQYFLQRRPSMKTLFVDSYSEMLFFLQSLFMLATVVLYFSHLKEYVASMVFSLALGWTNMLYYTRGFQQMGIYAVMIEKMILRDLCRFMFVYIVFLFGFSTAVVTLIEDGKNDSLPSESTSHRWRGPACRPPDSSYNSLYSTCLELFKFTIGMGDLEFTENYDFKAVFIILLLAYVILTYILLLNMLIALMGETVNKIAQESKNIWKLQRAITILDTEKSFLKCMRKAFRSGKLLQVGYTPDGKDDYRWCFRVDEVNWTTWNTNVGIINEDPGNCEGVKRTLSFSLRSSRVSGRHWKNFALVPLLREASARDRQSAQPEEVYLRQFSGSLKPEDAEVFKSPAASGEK

What follows are compounds tested against human TRPV1 receptors (Homo sapiens, UniProt Q8NER1) (assay: Inhibition of capsaicin-stimulated Ca2+ influx (Fluo-3, FDSS-3000) in CHO-K1 cells stably expressing human TRPV1 receptors). Conditions: CHO-K1 cells transfected with human TRPV1; capsaicin stimulation; Fluo-3 fluorescence.
Description: CHO-K1 cells were transfected with human TRPV1 receptors and a cell culture stably expressing the receptor was seeded on a medium of alpha-MEM containing FBS(10%), HEPES (20 mM), geneticin (1 mg/mL) and antibiotic-antimycotic mixed solution(1%) in 96-well plates, and incubated at 37° C. and 5% CO2 for 2-3 days.
The medium was then substituted with Lording Buffer (20 mM HEPES, 115 mM NaCl, 5.4 mM KCl 0.8 mM MgCl2, 1.8 mM CaCl2, 13.8 mM D-glucose, 2.5 mM probenecid, pH 7.4) containing Fluo-3 AM (5 μM) and incubated at 37° C. and 5% CO2 for 1 hour. The test compounds were diluted to different concentrations and added to the plates after the incubated culture was washed with Wash Buffer (20 mM HEPES, 115 mM NaCl, 5.4 mM KCl 0.8 mM MgCl2, 5.0 mM CaCl2, 13.8 mM D-glucose, 2.5 mM probenecid, 0.1% BSA, pH 7.4) and placed at room temperature for 15 minutes.
The plate was set up in Functional Drug Screening System(FDSS)-3000(Hamamatsu Photonics K.K.) and amounts of Ca^2+ influx before and after capsaicin-stimulation were measured through changes in the fluorescence intensity of Fluo-3.
An inhibitory activity was evaluated by measuring fluorescence intensity in the presence of various concentrations of the test compounds and calculating their % inhibition on the basis that the maximum fluorescence intensity is 100% inhibition when stimulated by Wash Buffer, and 0% inhibition when stimulated by capsaicin
Data analysis and calculation of IC50 values were performed with Excel(Microsoft Corporation) and XLfit(idbs).

Row | IC50 | Structure (SMILES)
1 | 39 nM | CC(C)(C)c1ccc(NC(=O)c2ccc(C3=NCCO3)cc2)cc1
2 | 160 nM | CC(C)(C)c1cc(NC(=O)c2ccc(C3=NCCS3)cc2)no1
3 | 49 nM | CC(C)(C)c1ccc(NC(=O)c2ccc(C3=NCCS3)nc2)cc1
